# Yeast mating assay 1: variants of the scFv Ab-14

From the AlphaSeq antibody data of Engelhart et al. 2022 (doi:10.1038/s41597-022-01779-4), copy in the FLAb collection.

The target is the same throughout: PDVDLGDISGINAS, from the HR2 region of SARS-CoV-2 spike.

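Phage display of a naive human antibody library on the peptide gave the parent. Variants in AAYL50 differ from the parent at up to three CDR positions; double and triple changes were sampled at random. The scFvs were displayed on barcoded MATa yeast, the peptide on MATalpha yeast. After mating in shaken culture at 30 °C for 16 h, diploids were selected and their barcode pairs sequenced. Scores were corrected for input abundance and mapped to Kd with protein pairs of known affinity run in the same pool. Each pool was mated in three replicate cultures.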

Each scFv is VH, the linker GGGGSGGGGSGGGGS, VL, as in the parent Ab-14, and differs from it in the CDRs of the light chain only.
VH: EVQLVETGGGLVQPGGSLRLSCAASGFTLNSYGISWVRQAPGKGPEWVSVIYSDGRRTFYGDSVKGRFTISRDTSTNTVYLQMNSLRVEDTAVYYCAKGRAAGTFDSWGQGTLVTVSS
VL: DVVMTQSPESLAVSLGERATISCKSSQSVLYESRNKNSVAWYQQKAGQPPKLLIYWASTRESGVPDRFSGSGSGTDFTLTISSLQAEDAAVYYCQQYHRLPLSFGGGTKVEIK

Substitutions are numbered in sequence along the VL above, starting at 1 (not Kabat). Affinities are written as log10 Kd with Kd in nM; a lower number is a better binder. A mean of the replicates is given; it leaves out those without a signal. An entry "nd" has no value in the source: the pair was not observed among the diploids in any replicate. This suggests poor binding but is not conclusive.

changes	mean log10 Kd (nM)	detected	signal with controls
A57C S62F H98A	3.08	3/3	1/9
S38M V39S A57M	4.17	1/3	3/9
V29E A57Y Q95N	nd	0/3	3/9
L30W A57D S58C	4.50	1/3	2/9
S25W S62W L100K	2.57	3/3	0/9
S25R N37C S103R	nd	0/3	2/9
N37W L100M	1.19	3/3	2/9
K36C T59E Q95R	6.16	1/3	2/9
E32N Q96R P101Q	4.33	1/3	2/9
S25Y S28P V29G	0.37	3/3	3/9
L30A S33C R60P	4.40	3/3	2/9
W56T S58P L100Y	5.26	1/3	0/9
Y31E V39D	4.91	2/3	5/9
E32R K36G A57S	2.62	3/3	0/9
S26G S58A S103K	4.34	2/3	2/9
Y31W A57P P101G	nd	0/3	0/9
S28H Y31T S62A	0.51	3/3	0/9
L30A Q95K Y97E	2.01	3/3	1/9
V29E Y97V S103A	1.37	3/3	3/9
L30W W56A	0.77	3/3	4/9
S33A E61S H98R	2.50	3/3	2/9
S58G Q96H L102W	nd	0/3	0/9
Q27D N35V A40K	4.05	2/3	4/9
N35H W56E A57L	0.32	3/3	2/9
K24V Q27F H98G	1.67	3/3	3/9
Y31R R34C K36Y	2.47	3/3	1/9
R34V K36A	3.72	1/3	0/9
Y31I K36N S62R	0.74	3/3	1/9
S38R E61V H98S	2.21	3/3	1/9
A57C S58Y R60Q	nd	0/3	1/9
A40G W56L Y97S	4.24	1/3	3/9
S38C R60M R99A	3.33	1/3	1/9
A40N A57I R60G	nd	0/3	0/9
N35D K36Y S62F	1.09	3/3	4/9
Q27N N35V Q96F	2.00	3/3	1/9
A40Q S58P Q96E	4.62	1/3	1/9
W56C S58R Q96K	3.81	1/3	1/9
L100M P101H L102Q	2.99	3/3	3/9
S28H V39Y P101C	3.83	1/3	0/9
S26I T59C L102W	5.67	1/3	0/9
S38G T59E	1.21	3/3	2/9
Y31D Q95T Y97I	1.20	3/3	6/9
S25N Y97L R99G	2.73	3/3	4/9
N35G Q96T	1.26	3/3	4/9
Y31L R34Q K36W	1.13	3/3	0/9
S26T R34I Q96C	2.56	3/3	2/9
L30M N35E W56H	0.40	3/3	6/9
L30N R34K V39M	2.97	3/3	9/9

The first 4 entries again:

changes	mean log10 Kd (nM)	detected	signal with controls
A57C S62F H98A	3.08	3/3	1/9
S38M V39S A57M	4.17	1/3	3/9
V29E A57Y Q95N	nd	0/3	3/9
L30W A57D S58C	4.50	1/3	2/9

Background: pairings of library AAYL50 with three empty control strains gave a value in 18% of cases (median 4.19, 5th percentile 2.99). Values in that range, when seen in few replicates, are hard to tell from nonspecific mating. The control count says in how many pairings with the empty strains this scFv gave a signal.